This is an account of results in PMC5748027, “Computer-aided design of multi-target ligands at A1R, A2AR and PDE10A, key proteins in neurodegenerative diseases” (Journal of Cheminformatics, 2017).

The chains behind the UniProt entries cited, without tags or fusion partners. Where a name states a change or a piece, a line headed by the entry shows the natural chain unless it says otherwise.
UniProt P30542, whole entry: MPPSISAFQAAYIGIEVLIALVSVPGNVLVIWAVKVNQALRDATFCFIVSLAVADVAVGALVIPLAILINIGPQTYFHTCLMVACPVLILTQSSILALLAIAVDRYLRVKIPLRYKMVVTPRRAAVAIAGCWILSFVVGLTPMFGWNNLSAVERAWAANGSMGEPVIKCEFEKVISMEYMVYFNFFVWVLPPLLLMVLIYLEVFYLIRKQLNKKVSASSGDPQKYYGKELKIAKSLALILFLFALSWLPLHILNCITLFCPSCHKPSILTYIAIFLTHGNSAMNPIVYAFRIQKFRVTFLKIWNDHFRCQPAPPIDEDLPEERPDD

Assay [1] deals with T1, A2A human adenosine receptor (A2AR) (Homo sapiens, UniProt P29274).
T1 construct: expressed in transfected cells; host or cells: HeLa
The experiment in a line: Radioligand binding competition assay, human A2A receptor in transfected HeLa cells. To be noted: Cheng-Prusoff approximation. The method, then:
(§1) Bioactivity testing was performed using A1 and A2A human adenosine receptors expressed in transfected CHO (A1) and HeLa (A2A) cells, as well as AD293 cells that were transiently transfected with human PDE10A. Table 1 includes the list of synthesized 4,6-substituted 2-amino-pyridin-3-carbonitriles, along with their Ki values against A1R, A2AR, and IC50 values against PDE10A.
(§2) Pharmacological evaluation was performed in a radioligand binding competition assay, using A1, A2A, A2B, and A3 human receptors expressed in transfected CHO (A1), HeLa (A2A and A3), and HEK-293 (A2B) according to the procedure reported by Bosch et al..

For assay [2], the target named is T2, A1 human adenosine receptor (A1R) (Homo sapiens, UniProt P30542).
T2 construct: expressed in transfected cells; host or cells: CHO
The experiment in a line: Radioligand binding competition assay, human A1 receptor in transfected CHO cells. The settings on record: Cheng-Prusoff approximation. As for the experimental part: as §1, §2

Each structure is given as a SMILES string.

The term Ki denotes a measure of affinity in units of concentration, obtained from inhibition or displacement. A higher Ki goes with lower affinity.

Take `COc1ccc(-c2cc(-c3ccco3)nc(N)c2C#N)cc1` [Compound 16, 2-amino-6-(furan-2-yl)-4-(4-methoxyphenyl)pyridine-3-carbonitrile]: the inhibition constant Ki in assay [1] came out at 41 ± 2 nM; in assay [2], 34 nM.
